Molecular target: T1, OvCHT1 (Onchocerca volvulus, UniProt Q25615)
T1 sequence (Q25615 22-497): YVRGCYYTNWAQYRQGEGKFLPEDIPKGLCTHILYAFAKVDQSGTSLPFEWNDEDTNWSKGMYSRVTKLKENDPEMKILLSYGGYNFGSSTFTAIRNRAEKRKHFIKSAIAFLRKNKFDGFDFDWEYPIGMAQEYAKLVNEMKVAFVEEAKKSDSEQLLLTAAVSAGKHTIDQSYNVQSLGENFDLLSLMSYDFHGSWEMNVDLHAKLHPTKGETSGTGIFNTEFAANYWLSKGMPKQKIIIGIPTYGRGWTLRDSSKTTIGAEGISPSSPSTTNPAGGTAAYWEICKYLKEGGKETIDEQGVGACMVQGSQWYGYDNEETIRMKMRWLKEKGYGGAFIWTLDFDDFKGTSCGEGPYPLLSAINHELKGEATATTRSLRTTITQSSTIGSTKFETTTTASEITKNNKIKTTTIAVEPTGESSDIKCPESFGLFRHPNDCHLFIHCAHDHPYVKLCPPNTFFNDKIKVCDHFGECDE
Experiment: O. volvulus chitinase
Format: biochemical

## O=C(Nc1ccc(Oc2ccc(Cl)cc2)cc1)c1cc(I)cc(I)c1O [Compound 3h, N-(4-(4-Chlorophenoxy)phenyl)-2-hydroxy-3,5-diiodobenzamide]
  enhancement of potency against OvCHT1 relative to 3a: ~3 fold
